According to patent US10111893B2, “Calmangafodipir, a new chemical entity, and other mixed metal complexes, methods of preparation, compositions, and methods of treatment” (priority 2012, dated 2018):

Tested on: white blood cells (WBC)
Experiment: Myelosuppressive effects of oxaliplatin in balb/c mice, cytoprotection
Conditions: calmangafodipir 5 mg/kg, MnPLED 1 mg/kg iv; oxaliplatin 12.5 mg/kg

SMILES: Cc1ncc(COP(=O)([O-])O)c(CN(CCN(CC(=O)O)Cc2c(COP(=O)([O-])O)cnc(C)c2O)CC(=O)O)c1O.Cc1ncc(COP(=O)([O-])O)c(CN(CCN(CC(=O)O)Cc2c(COP(=O)([O-])O)cnc(C)c2O)CC(=O)O)c1O.Cc1ncc(COP(=O)([O-])O)c(CN(CCN(CC(=O)O)Cc2c(COP(=O)([O-])O)cnc(C)c2O)CC(=O)O)c1O.Cc1ncc(COP(=O)([O-])O)c(CN(CCN(CC(=O)O)Cc2c(COP(=O)([O-])O)cnc(C)c2O)CC(=O)O)c1O.Cc1ncc(COP(=O)([O-])O)c(CN(CCN(CC(=O)O)Cc2c(COP(=O)([O-])O)cnc(C)c2O)CC(=O)O)c1O.[Ca+2].[Ca+2].[Ca+2].[Ca+2].[Mn+2] [calmangafodipir]
- protection from oxaliplatin-induced fall in WBC compared with mangafodipir: statistically significant more efficacious than 1 mg/kg mangafodipir
